From patent publication US20240132480A1, “INHIBITORS OF MYCOBACTERIUM TUBERCULOSIS LIPOAMIDE DEHYDROGENASE” (Cornell University, priority 2021, published 2024) come the findings set out here.

Data set [1] can be described thus: Microsomal clearance (hLM). The following applies: in vitro ADME-tox profiling, in words.
The test system of data set [2] is mouse BMDM. As to the kind of experiment: Toxicity to BMDM by MTS assay. The following applies: any concentration tested. (Tetrazolium dyes change colour on reduction, which living cells bring about.)

As to `COc1ccc(NC(=O)CN(C)S(=O)(=O)c2cc(C)cc3cn[nH]c23)cc1Cl` [Example 1, N-(3-chloro-4-methoxyphenyl)-2-((N,5-dimethyl-1H-indazole)-7-sulfonamido)acetamide], the microsomal clearance entry in data set [1] was “rapid microsomal clearance”.

Regarding `Cc1cc(S(=O)(=O)N(C)CC(=O)Nc2ccn(C)c(=O)c2)c2[nH]ncc2c1` [Example 24, 2-((5-chloro-N-methyl-1H-indazole)-7-sulfonamido)-N-(1-methyl-2-oxo-1,2-dihydropyridin-4-yl)acetamide], the “toxicity to mouse BMDM” value in data set [2] was “No toxicity was observed”.
